By Ki is commonly meant the equilibrium dissociation constant of an inhibitor or competing ligand from its target. Read a low Ki as a stronger hold on the target.

What all share (assay): Radioligand Binding Assay
What all share (conditions): pH 7.4

The target of one test is Nociceptin receptor (Homo sapiens, UniProt P41146).
In test [1] the target is Delta-type opioid receptor (Homo sapiens, UniProt P41143).
The target in a further test is Mu-type opioid receptor (Homo sapiens, UniProt P35372).
Test [2] has as its target Kappa-type opioid receptor (Homo sapiens, UniProt P41145).

As to `O=c1ccc(Nc2nc3ccccc3n(C3CCN(C4CCCCCCC4)CC3)c2=O)c[nH]1`, the values for the inhibition constant (Ki) (on Nociceptin receptor; in test [1]) were 46.3 nM and 46700 nM, respectively. Take `O=C(O)C(=O)N1CC2CN(c3nc4ccccc4n(C4CCN(C5CCCCCCC5)CC4)c3=O)CC2C1` (stereo unspecified): the Ki was above 20000 nM in test [1], 2920 nM at Mu-type opioid receptor and 488 nM in test [2]. As to `O=C(O)Cc1nc2ccccc2n([C@H]2C[C@H]3CCC[C@@H](C2)N3C2CCCCCCC2)c1=O`, the Ki worked out at 189 nM at Nociceptin receptor, 35600 nM in test [1], 12800 nM at Mu-type opioid receptor and 19200 nM in test [2].

With `CCCC1(N2CCC(n3c(=O)c(C(=O)O)nc4ccccc43)CC2)CCCCCCC1`, the Ki on Nociceptin receptor stood at 45.5 nM. In other words, the double-digit nanomolar range.

Consider `CCOC(=O)c1nc2ccccc2n([C@H]2C[C@H]3CCC[C@@H](C2)N3C2CCCCCCC2)c1=O`, for which the Ki in test [2] is 46.3 nM. Compound `O=C(NO)c1nc2ccccc2n([C@H]2C[C@H]3CC[C@@H](C2)N3C2CCCCCCC2)c1=O` registered an inhibition constant Ki at Nociceptin receptor of 2.7 nM. This counts as single-digit nanomolar. At Nociceptin receptor, `NC(=O)C1(N2CCC(n3c(=O)c(N4CC5CNCC5C4)nc4ccccc43)CC2)CCCCCCC1` (stereo unspecified) registered a Ki of 44.6 nM.

`CC(=O)NC1(C(=O)O)CCN(c2nc3ccccc3n([C@H]3C[C@H]4CC[C@@H](C3)N4C3CCCCCCC3)c2=O)CC1`: the Ki at Nociceptin receptor amounted to 158 nM; in test [2] it was 256 nM. Compound `O=c1c(N2CC[C@@H](O)C2)nc2ccccc2n1C1CCN(C2CCCCCCC2)CC1` had a Ki in test [1] of 35000 nM. Turning to `CS(=O)(=O)NCCNc1nc2ccccc2n(C2CCN(C3CCCCCCC3)CC2)c1=O`, the Ki in test [1] came out at 44100 nM; in test [2] it was 905 nM. In turn, `CC(C)(C)OC(=O)N1CC2CN(c3nc4ccccc4n(C4CCN(C5CCCCCCC5)CC4)c3=O)CC2C1` (stereo unspecified) showed an inhibitory constant (Ki) in test [2] of 136 nM. This lies in the sub-micromolar range. Still for that read-out and setting: the result for `O=C(O)[C@H](CO)Nc1nc2ccccc2n(C2CCN(C3CCCCCCC3)CC2)c1=O` reads 544 nM.

`CC1(N2CCC(n3c(=O)c(C(=O)O)nc4ccccc43)CC2)CCCCCCC1`: the results for the Ki (on Nociceptin receptor; in test [2]) were 18.1 nM and 1120 nM, respectively. Take `CC(C)(Nc1nc2ccccc2n([C@H]2C[C@H]3CC[C@@H](C2)N3C2CCCCCCC2)c1=O)C(=O)O`: the Ki at Mu-type opioid receptor is 8900 nM; in test [2] it was 890 nM.

Take `CC(=O)N[C@@H]1CCN(c2nc3ccccc3n(C3CCN(C4CCCCCCC4)CC3)c2=O)C1`: the Ki in test [2] amounted to 222 nM.

In the case of `O=C(O)c1nc2ccccc2n(C2CCN(C3CCCCCCC3)CC2)c1=O`, the inhibition constant Ki in test [2] stood at 1030 nM. Consider `O=C(O)[C@H](CO)Nc1nc2ccccc2n([C@@H]2C[C@H]3CC[C@@H](C2)N3C2CCCCCCC2)c1=O`, for which the Ki at Nociceptin receptor stood at 285 nM.

`NC(=O)[C@H](CO)Nc1nc2ccccc2n([C@@H]2C[C@H]3CC[C@@H](C2)N3C2CCCCCCC2)c1=O` showed a Ki in test [2] of 5350 nM.

Take `O=C(O)c1nc2ccccc2n([C@H]2C[C@H]3CCC[C@@H](C2)N3C2C3CCCC2CCC3)c1=O` (stereo partly specified): the inhibition constant (Ki) worked out at 8.5 nM on Nociceptin receptor and 3430 nM at Mu-type opioid receptor.

Consider `O=C1NC(=O)C2(CCN(c3nc4ccccc4n([C@H]4C[C@H]5CC[C@@H](C4)N5C4CCCCCCC4)c3=O)CC2)N1`, for which the inhibition constant (Ki) in test [2] worked out at 67 nM. With `O=C(O)c1nc2ccccc2n([C@H]2C[C@H]3CCC[C@@H](C2)N3C23CC4CC(CC(C4)C2)C3)c1=O`, the Ki worked out at 47.5 nM on Nociceptin receptor and 5620 nM in test [2]. For the compound `O=C(O)CN1CC2CN(c3nc4ccccc4n([C@H]4C[C@H]5CC[C@@H](C4)N5C4CCCCCCC4)c3=O)CC2C1` (stereo partly specified), the affinity at Nociceptin receptor, expressed as Ki, was 15.8 nM. With `O=C(NC(Cc1c[nH]cn1)C(=O)O)c1nc2ccccc2n([C@H]2C[C@H]3CC[C@@H](C2)N3C2CCCCCCC2)c1=O` (stereo partly specified), the results for the inhibitory constant (Ki) (on Nociceptin receptor; at Mu-type opioid receptor; in test [2]) were 33.5 nM, 368 nM and 130 nM, respectively. For the compound `CC(=O)NC1CCN(c2nc3ccccc3n(C3CCN(C4CCCCCCC4)CC3)c2=O)CC1`, the inhibitory constant (Ki) on Nociceptin receptor is 60.8 nM. `COc1ccc(Nc2nc3ccccc3n(C3CCN(C4CCCCCCC4)CC3)c2=O)cn1` yielded an inhibition constant Ki in test [2] of 46.3 nM. Compound `O=c1c(N2CCc3ccccc3C2)nc2ccccc2n1C1CCN(C2CCCCCCC2)CC1` yielded an inhibition constant (Ki) at Nociceptin receptor of 42.3 nM. That is a double-digit nanomolar value. Turning to `O=C(O)C1CCN(c2nc3ccccc3n([C@H]3C[C@H]4CC[C@@H](C3)N4C3CCCCCCC3)c2=O)CC1`, affinity on Mu-type opioid receptor was put at a Ki of 1670 nM. As for `O=C(O)CN(CCNc1nc2ccccc2n([C@H]2C[C@H]3CC[C@@H](C2)N3C2CCCCCCC2)c1=O)CC(=O)O`, the Ki amounted to 4.4 nM at Nociceptin receptor and 1080 nM at Mu-type opioid receptor. Take `O=C(O)c1nc2ccccc2n([C@H]2C[C@H]3CCC[C@@H](C2)N3C2CCCCCCC2)c1=O`: the inhibition constant Ki on Nociceptin receptor is 17.7 nM; at Mu-type opioid receptor, 679 nM; in test [2], 440 nM.

Regarding `O=C(NO)c1nc2ccccc2n(C2CCN(C3CCCCCCC3)CC2)c1=O`, the Ki at Mu-type opioid receptor was 5570 nM; in test [2], 2730 nM. With `CCOC(=O)c1nc2ccccc2n([C@H]2C[C@H]3CC[C@@H](C2)N3C2CCCCCCC2)c1=O`, the inhibitory constant (Ki) at Nociceptin receptor amounted to 22.2 nM. The same measure, in the same setting: the result for `O=C(O)c1nc2ccccc2n([C@H]2C[C@H]3CC[C@@H](C2)N3C2CCCCCCCCC2)c1=O` reads 2.5 nM. Same read-out and setting: next, `O=C(O)C1CCCN1c1nc2ccccc2n(C2CCN(C3CCCCCCC3)CC2)c1=O` (stereo unspecified): 309 nM. As to `O=C1CN(C2CCN(C3CCCCCCC3)CC2)c2ccccc2N1`, the affinity in test [1] corresponds to a Ki of 9670 nM. Turning to `NC(=O)CN(CCNc1nc2ccccc2n([C@H]2C[C@H]3CC[C@@H](C2)N3C2CCCCCCC2)c1=O)CC(=O)O`, at Nociceptin receptor, the inhibitory constant (Ki) amounted to 16.8 nM. This lies in the double-digit nanomolar range. As for `O=C(O)C1(O)CCN(c2nc3ccccc3n([C@H]3C[C@H]4CC[C@@H](C3)N4C3CCCCCCC3)c2=O)C1` (stereo partly specified), the Ki in test [2] was determined as 1650 nM.

Take `O=C(O)[C@@H](CO)Nc1nc2ccccc2n([C@H]2C[C@H]3CC[C@@H](C2)N3C2CCCCCCC2)c1=O`: on Mu-type opioid receptor, the inhibition constant (Ki) worked out at 770 nM. `N#CNC(=O)c1nc2ccccc2n(C2CCN(C3CCCCCCC3)CC2)c1=O` came in with a Ki at Nociceptin receptor of 273 nM. In turn, `O=C(O)CC1CCN(c2nc3ccccc3n([C@H]3C[C@H]4CC[C@@H](C3)N4C3CCCCCCC3)c2=O)C1` (stereo partly specified) returned a Ki in test [2] of 1200 nM. On Nociceptin receptor, `CS(=O)(=O)NC(=O)c1nc2ccccc2n(C2CCN(C3CCCCCCC3)CC2)c1=O` returned a Ki of 375 nM.

On to `O=C(O)c1nc2ccccc2n([C@H]2C[C@H]3CCC[C@@H](C2)N3C2CCCCCCCCC2)c1=O`, for which the affinity at Nociceptin receptor corresponds to a Ki of 1.8 nM. In test [2], `O=C(NC(Cc1ccccc1)C(=O)O)c1nc2ccccc2n([C@H]2C[C@H]3CC[C@@H](C2)N3C2CCCCCCC2)c1=O` (stereo partly specified) showed an inhibition constant Ki of 49.7 nM.

In test [2], `O=c1c(N2CCc3ccccc32)nc2ccccc2n1C1CCN(C2CCCCCCC2)CC1` displayed a Ki of 375 nM. `O=C(O)C1CCN(CCNc2nc3ccccc3n([C@H]3C[C@H]4CC[C@@H](C3)N4C3CCCCCCC3)c2=O)CC1` yielded a Ki on Nociceptin receptor of 34.7 nM. Same read-out and setting: the result for `O=C(O)CNc1nc2ccccc2n(C2CCN(C3CCCCCCC3)CC2)c1=O` reads 368 nM. Turning to `O=c1c(N2CC3CNCC3C2)nc2ncccc2n1C1CCN(C2CCCCCCC2)CC1` (stereo unspecified), the values for the inhibitory constant (Ki) (in test [1]; on Mu-type opioid receptor; in test [2]) were 29200 nM, 196 nM and 130 nM, respectively. `O=C(O)c1nc2ccccc2n([C@H]2C[C@H]3CCC[C@@H](C2)N3C2CCCCCCCC2)c1=O`: the inhibitory constant (Ki) at Nociceptin receptor worked out at 1.4 nM; in test [2], 375 nM. On to `O=C(O)C1(Nc2nc3ccccc3n([C@H]3C[C@H]4CC[C@@H](C3)N4C3CCCCCCC3)c2=O)CCCCC1`, for which, at Nociceptin receptor, affinity was put at a Ki of 237 nM. Regarding `CCOC(=O)c1nc2ccccc2n([C@H]2C[C@H]3COC[C@@H](C2)N3C2CCCCCCC2)c1=O`, on Nociceptin receptor, affinity was put at a Ki of 911 nM. Against the preceding compound, the Ki is about 3.8-fold higher. In test [2], `C=CCNc1nc2ccccc2n(C2CCN(C3CCCCCCC3)CC2)c1=O` showed a Ki of 852 nM. That is a sub-micromolar value.

These data come from BindingDB's records for US8846929.
